Experimental data as given in EP1903056A2, “HLA-A1, -A2 -A3, -A24, -B7, and -B44 tumor associated antigen peptides and compositions” (priority 2002, dated 2004).
Read-outs that look alike come from different tables or passages of the source.

Assays:
B*1801 = B*1801 (Homo sapiens, UniProt P01889, A329T/A93T/A95T/C349S/D201E/D54G/D98Y/E176V/E187T/E204Q/E69T/K202T/Q94N/R155S/R180L/S121R/V306I/Y140S/Y195H/Y33H/Y91S); test: B44 supertype peptide binding, B*1801
B*4002 (B61) = B*4002 (B61) (Homo sapiens, UniProt P01889, A65T/A93T/A95T/D138N/D201E/D98Y/E176V/E204Q/E69K/K202T/N87E/Q56L/Q94N/R180L/S48T/Y33H/Y91S); test: B44 supertype peptide binding, B*4002; conditions: read-out: B* 4002
B*4402 = B*4402 (Homo sapiens, UniProt P01889, A223V/A65T/A93T/A95T/D201E/D98Y/E176V/E187L/E204Q/E69K/G107R/H137Y/K202T/L105A/L119I/N104T/N87E/Q56L/Q94N/R106L/R155S/R180D/S101N/S121R/S35A/S48T/T118I/V36M/W191S/Y140D/Y91S); test: B44 supertype peptide binding, B*4402; conditions: read-out: B* 4402
B*4501 = B*4501 (Homo sapiens, UniProt P01889, A329T/A65T/A93T/A95T/C349S/D138N/D201E/D98Y/E176V/E187L/E204Q/E69K/H137Y/K202T/L119W/N87E/Q56L/Q94N/R155S/R180D/S121R/S35A/S48T/V127L/V306I/V36M/W191S/Y140L/Y33H/Y91S); test: B44 supertype peptide binding, B*4501; conditions: read-out: B* 4501
B*4403 = B*4403 (Homo sapiens, UniProt P01889, A223V/A65T/A93T/A95T/D201E/D98Y/E176V/E187L/E204Q/E69K/G107R/H137Y/K202T/L105A/L119I/N104T/N87E/Q56L/Q94N/R106L/R155S/R180L/S101N/S121R/S35A/S48T/T118I/V36M/W191S/Y140D/Y91S); test: B44 supertype peptide binding, B*4403; conditions: read-out: B* 4403
B*4001(B60) = B*4001(B60) (Homo sapiens, UniProt P01889, A65T/A93T/A95T/D138N/D98Y/E176V/E69K/N87E/Q56L/Q94N/R180L/S121R/S35A/S48T/T167S/V36M/W171L/Y33H/Y91S); test: B44 supertype peptide binding, B*4001; conditions: read-out: B* 4001
[1] = HER 2/neu-derived B44 peptides, Table 27
[2] = Table 29: MAGE2-derived B44 peptides

Row | SMILES | IC50 (B*1801; [1]) [nM] | IC50 (B*4002 (B61); [1]) [nM] | IC50 (B*4402; [1]) [nM] | IC50 (B*4501; [1]) [nM] | IC50 (B*4403; [1]) [nM] | IC50 (B*4001(B60); [1]) [nM] | further results
1 | CC(C)C[C@H](NC(=O)[C@H](CC(=O)O)NC(=O)[C@H](CCCNC(=N)N)NC(=O)[C@H](Cc1c[nH]cn1)NC(=O)[C@@H](NC(=O)[C@H](CC(C)C)NC(=O)[C@H](CCCNC(=N)N)NC(=O)[C@@H](NC(=O)[C@H](CC(=O)O)NC(=O)[C@H](CCC(=O)O)NC(=O)[C@@H](N)CC(C)C)C(C)C)C(C)C)C(=O)O [compound 533] | 729 | 641 | 818 | 2380 |  |  | 
2 | CC[C@H](C)[C@H](NC(=O)[C@H](CO)NC(=O)[C@H](CCC(=O)O)NC(=O)[C@@H](N)CC(C)C)C(=O)N[C@@H](CC(C)C)C(=O)N[C@@H](CCCNC(=N)N)C(=O)N[C@@H](CCCNC(=N)N)C(=O)N[C@@H](CCCNC(=N)N)C(=O)N[C@@H](Cc1ccccc1)C(=O)N[C@H](C(=O)O)[C@@H](C)O [compound 535] |  |  |  |  | 657 |  | 
3 | CC(C)C[C@H](NC(=O)[C@H](Cc1ccc(O)cc1)NC(=O)[C@H](CCC(=O)O)NC(=O)[C@@H]1CCCN1)C(=O)N[C@H](C(=O)N1CCC[C@H]1C(=O)N[C@@H](CCC(N)=O)C(=O)NCC(=O)NCC(=O)N[C@@H](C)C(=O)N[C@@H](C)C(=O)O)[C@@H](C)O [compound 540] |  | 200 |  | 4010 | 354 |  | 
4 | CSCC[C@H](NC(=O)[C@H](CC(=O)O)NC(=O)[C@H](CC(C)C)NC(=O)[C@H](Cc1c[nH]cn1)NC(=O)[C@@H](NC(=O)[C@H](CCC(=O)O)NC(=O)[C@@H]1CCCN1)[C@@H](C)O)C(=O)N[C@@H](CC(C)C)C(=O)O [compound 542] | 1950 | 6120 |  |  |  | 8390 | 
5 | CC[C@H](C)[C@H](NC(=O)[C@H](CCC(=O)O)NC(=O)[C@H](CCC(=O)O)NC(=O)[C@H](CC(C)C)NC(=O)[C@@H](NC(=O)[C@H](CCC(=O)O)NC(=O)[C@@H](N)Cc1ccccc1)[C@@H](C)O)C(=O)N[C@H](C(=O)NCC(=O)N[C@@H](Cc1ccc(O)cc1)C(=O)O)[C@@H](C)O [compound 552] |  |  |  |  | 1680 |  | 
6 | CC(C)C[C@H](NC(=O)[C@@H](NC(=O)[C@H](CCCNC(=N)N)NC(=O)[C@H](CS)NC(=O)[C@H](CCC(=O)O)NC(=O)[C@H](CCC(=O)O)NC(=O)[C@@H](N)C(C)C)C(C)C)C(=O)N[C@@H](CCC(N)=O)C(=O)NCC(=O)O [compound 555] |  | 7620 |  |  | 305 | 8950 | 
7 | CC(C)C[C@H](NC(=O)CNC(=O)[C@H](CCC(N)=O)NC(=O)[C@H](CC(C)C)NC(=O)[C@@H](NC(=O)[C@H](CCCNC(=N)N)NC(=O)[C@H](CS)NC(=O)[C@H](CCC(=O)O)NC(=O)[C@@H](N)CCC(=O)O)C(C)C)C(=O)O [compound 556] |  | 2030 | 717 |  | 434 | 7080 | 
8 | CC(C)C[C@H](NC(=O)[C@@H](NC(=O)[C@H](CCCCN)NC(=O)[C@@H](NC(=O)[C@H](CCCCN)NC(=O)[C@H](CCCNC(=N)N)NC(=O)[C@H](CC(C)C)NC(=O)[C@H](CCC(=O)O)NC(=O)[C@@H](NC(=O)[C@H](CCC(=O)O)NC(=O)[C@@H](N)CCCCN)[C@@H](C)O)C(C)C)C(C)C)C(=O)O [compound 560] | 9530 | 1870 | 7140 | 12200 |  |  | 
9 | CC[C@H](C)[C@H](NC(=O)[C@H](C)NC(=O)[C@H](C)NC(=O)[C@H](CCC(N)=O)NC(=O)[C@H](Cc1ccccc1)NC(=O)[C@H](CCC(=O)O)NC(=O)[C@H](CO)NC(=O)[C@H](CCC(=O)O)NC(=O)[C@@H](N)CC(C)C)C(=O)N[C@@H](CO)C(=O)N[C@@H](CCCNC(=N)N)C(=O)N[C@@H](CCCCN)C(=O)N[C@@H](CCSC)C(=O)O [compound 646] |  |  |  |  |  |  | IC50 (B*1801; [2]): 26 nM; IC50 (B*4001(B60); [2]): 264 nM; IC50 (B*4002 (B61); [2]): 46 nM; IC50 (B*4402; [2]): 427 nM; IC50 (B*4501; [2]): 102 nM
10 | CC(C)C[C@H](NC(=O)CNC(=O)[C@H](CCC(=O)O)NC(=O)[C@@H](N)CCC(=O)O)C(=O)N[C@@H](CCC(=O)O)C(=O)N[C@@H](C)C(=O)N[C@@H](CCCNC(=N)N)C(=O)NCC(=O)N[C@@H](CCC(=O)O)C(=O)N[C@@H](C)C(=O)O [compound 694] |  |  |  |  |  |  | IC50 (B*4403; [2]): 684 nM
